# miR-21 reporter: miR-21 reporter, rising signal; HeLa miR-21 FLuc reporter, luciferase, 48 h; Potency, µM (doses to about 38.3 µM); 340,000 tested, under 10 active; AID 2288; active = well fitted rising curve with a large enough effect; inconclusive = small, poorly fitted or top-dose-only effect; inactive = no such curve, though single readings can be large or run the other way;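 further: miR-21 action dims this reporter so a rising signal means less miR-21 action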
#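 HeLa cells endogenously expressing miR-21, stably carrying CMV-driven firefly luciferase with a downstream miR-21 binding site, 2000 cells/well. Titrations up to approximately 40 uM, 48 hours; luciferase luminescence read.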
# LMNA splice mod: LMNA splicing modulation; HeLa LMNA splicing GFP/RFP minigene ratio, 48 h; hit rate 0.01% among 200,000; AID 1487; Potency, µM (doses to about 46.1 µM), usual class: inhibitors; active = well fitted inhibition curve with a large enough effect in the signal ratio, with a control signal flat, not every such curve was filed as active; inconclusive = small, poorly fitted or top-dose-only effect, or effect the other way, or a change in a side signal; the % refers to the signal ratio
#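 Read-out is the ratio of GFP to DsRed2 object intensity, acquired by 488 nm laser-scanning cytometry on HeLa lamin A-EGFP minigene reporter cells. Compound incubation 48 hrs at 37 °C in Opti-MEM with 2% FBS; DMSO 0.5% final.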
# ALDH1A1 block: inhibitors of human aldehyde dehydrogenase 1A1 | Purified ALDH1A1, NADH fluorescence, propionaldehyde substrate | hit rate 7.3% among 220,000 | P00352 | Potency, µM (top dose mostly 75.3 µM), actives largely listed as inhibitors | AID 1030; active = well fitted inhibition curve with a large enough effect, not every such curve was filed as active; inconclusive = small, poorly fitted or top-dose-only effect, or another doubt; inactive = no such curve, though single readings can be large or run the other way
# KDM4E inh: blocks human JMJD2E demethylase activity; JMJD2E catalytic domain, FDH-coupled NADH fluorescence (FDH is formaldehyde dehydrogenase); Potency, µM (titrated, usually from 57.1 µM), actives largely listed as inhibitors; B2RXH2; hit rate 1.6% among 230,000; active = well fitted inhibition curve with a large enough effect, not every such curve was filed as active; inconclusive = small, poorly fitted or top-dose-only effect, or another doubt; inactive = no such curve, though single readings can be large or run the other way; also: nearly all actives have a fitted effect of over 50% in size
# G9a inh: inhibitors of human histone lysine methyltransferase G9a | AID 504332 | Potency, µM (top dose mostly 102 µM), actives largely listed as inhibitors | G9a H3K9 monomethylation, AlphaScreen, 2 h | hit rate 8.8% among 350,000; also: nearly all actives have a fitted effect of over 75% in size
#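 Enzyme 20 nM + cpd, 15 min RT; add b-H3K9 pep 500 nM / SAM 20 uM; 2 h RT; anti-H3K9me1 Ab 0.5 ug/mL + SA donor / anti-rabbit acceptor beads 20 ug/mL each, 10 min; AlphaScreen read.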
# Sfp PPTase inh: inhibitors of Bacillus subtilis Sfp phosphopantetheinyl transferase; Biochemical Sfp PPTase activity, qHTS; hit rate 3.5% among 310,000; AID 1490; Potency, µM, most hits filed as inhibitors;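 also: the enzyme is Sfp with the accession as filed and its product quenches rhodamine fluorescence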
#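 Sfp 15 nM + cpd, 15 min RT; start w/ rhodamine-CoA 5 uM, BHQ-2-YbbR 12.5 uM (final); 50 mM Hepes pH 7.6, 10 mM MgCl2, 0.01% NP-40, 0.01% BSA; read 525/598 nm at 0 and 30 min.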
# A number is an active result; i = inactive; ? = inconclusive; nt = no result; [ ] = another dose, or the depositor's remark. A selection: hits, their analogues and other compounds. The true share with any hit is near 13%. Unless noted, calls follow the shape of the dose curve; as a rule, active = well fitted curve in the direction sought with a large enough effect; inconclusive = small, poorly fitted or top-dose-only effect, or another doubt; inactive = no such curve, though single readings can be large; an effect the other way counts as inactive or inconclusive.
SMILES,miR-21 reporter,LMNA splice mod,ALDH1A1 block,KDM4E inh,G9a inh,Sfp PPTase inh
Cc1cc(/C=N/Nc2ccc([N+](=O)[O-])cn2)c(C)n1-c1ccc(C(=O)O)cc1,i,nt,?,i,50µM,56µM
N#C/C(C(=O)c1ccccc1)=C1/SC=C(N)N1c1ccccc1,i,i,3.2µM,i,?,35µM
COC(=O)/C(C#N)=C1/SC=C(C)N1c1ccccc1,i,i,11µM,i,i,i
N#C/C(C(N)=O)=C1/SC=C(c2ccccc2)N1c1ccccc1,i,nt,nt,?,?,i
COc1ccc(NC(=O)CN2C(=O)COc3ccc(S(=O)(=O)Nc4ccccc4)cc32)cc1OC,i,i,nt,nt,i,nt
COc1ccc(CNC(=O)CCc2c(C)nn(-c3ccc(N4CCCCC4)nn3)c2C)c(OC)c1,i,i,nt,nt,i,nt
CCOC(=O)c1c(C)[nH]c(C)c1S(=O)(=O)N1CCC(C(=O)N2CCN(c3cccc(C)c3C)CC2)CC1,?,i,nt,nt,i,nt
CCOC(=O)c1cc(S(=O)(=O)N2CCN(c3cccc(C)c3C)CC2)[nH]n1,i,i,nt,nt,10µM,nt
CCOC(=O)c1cc(S(=O)(=O)N2CCN(c3ccccc3F)CC2)[nH]n1,?,i,nt,nt,16µM,nt
CCn1c(CSCc2ccc(C)cc2)n[nH]c1=S,i,nt,nt,nt,nt,i
CCn1c(CN2CCN(c3cccc(C)c3C)CC2)n[nH]c1=S,i,?,i,i,7.9µM,i
CCOC(=O)c1cc(S(=O)(=O)N2CCN(c3ccc(C)cc3C)CC2)[nH]n1,i,i,nt,nt,4µM,nt
COc1ccccc1NC(=O)C(C)N(C)Cc1ccc(Cl)s1 (stereo not drawn),i,nt,nt,nt,i,i
CSCCC(NC(=O)COc1ccccc1)C(=O)N1CCOCC1 (stereo not drawn),nt,nt,nt,nt,i[12.7 µM],nt
CC(C)CC1(C(=O)O)C=CCN1C(=O)c1ccccc1 (stereo not drawn),nt,nt,i,i,nt,i
CCN(CC)c1ccc(Nc2nc(N3CCOCC3)c3ccccc3n2)cc1,i,?,?,i,2.2µM,?
COc1ccc(Nc2nc(N3CCCC3)c3ccccc3n2)cc1,i,?,i,i,i[12.7 µM],?
COCCCNC(=O)Cn1c(=O)n(Cc2ccc(C(=O)NCc3ccc(C)cc3)cc2)c(=O)c2ccccc21,i,nt,nt,nt,i,nt
COc1ccc(-c2cc(C(=O)Nc3cccc(O)c3)on2)cc1OC,i,i,nt,nt,14µM,nt
COc1cccc(-c2cc(C(=O)Nc3cc(Cl)ccc3O)on2)c1,i,?,nt,nt,13µM,nt
COc1cccc(-c2cc(C(=O)Nc3cc(OC)c(OC)c(OC)c3)on2)c1,i,i,nt,nt,i,nt
CCN(CC(=O)NCc1cccs1)c1ccc(S(=O)(=O)N2CCN(C)CC2)cn1,i,nt,?,i,i,i
CC1=NN(c2ccc(Cl)cc2)C(=O)C1,i,?,0.63µM,i,i,i
CC1=NN(c2cccc([N+](=O)[O-])c2)C(=O)C1,i,i,?,i,nt,i
CC1=NN(c2ccc(N)cc2)C(=O)C1,i,i,?,?,8.9µM,i
SMILES,miR-21 reporter,LMNA splice mod,ALDH1A1 block,KDM4E inh,G9a inh,Sfp PPTase inh
CC1=NN(c2ccccc2)C(=O)C1,i,i,10µM,?,i,i
COc1ccc(Cl)cc1N=C1NC(=O)CC(C(=O)Nc2ccccc2C(F)(F)F)S1 (stereo not drawn),i,nt,nt,nt,?,nt
CSc1ccc(CNC(=O)CCn2ccc3cc(S(=O)(=O)N4CCC(C)CC4)ccc32)cc1,i,nt,nt,nt,i,nt
Cc1c(Cl)cnn1CC(=O)NC1C(=O)N2C(C(=O)O)=C(CSc3nnnn3C)CSC12 (stereo not drawn),i,nt,i,i,?,50µM
NC(=O)c1cc[n+](CC2=C(C(=O)O)N3C(=O)[C@@H](NC(=O)C(c4ccccc4)S(=O)(=O)[O-])[C@H]3SC2)cc1 (stereo partly drawn),i,?,i,i,i,i
Cc1c(Cl)c(C(F)F)nn1CC(=O)NC1C(=O)N2C(C(=O)O)=C(CSc3nnnn3C)CSC12 (stereo not drawn),i,nt,i,i,28µM,?
Cn1nnnc1SCC1=C(C(=O)O)N2C(=O)C(NC(=O)Cn3nc(C(F)F)cc3C3CC3)C2SC1 (stereo not drawn),i,i,i,i,?,i
O=C(O)C1=C(CSc2nnnn2CS(=O)(=O)O)CS[C@@H]2[C@H](NC(=O)[C@H](O)c3ccccc3)C(=O)N12,nt,nt,nt,nt,?,79µM
Cc1nn(CC(=O)NC2C(=O)N3C(C(=O)O)=C(CSc4nnnn4C)CSC23)cc1Br (stereo not drawn),i,nt,i,i,40µM,?
Cc1cccc(C(C)C)c1NC(=O)Cn1c(=O)oc2cc(S(=O)(=O)N3CCCC3)ccc21,i,nt,nt,nt,i,nt
CN(Cc1cccnc1)C(=O)Cc1ccc(NS(=O)(=O)c2cccc(C(F)(F)F)c2)cc1,i,nt,nt,nt,i,i
CN1CCN(C(CNC(=O)c2c(F)cccc2F)c2ccc3c(c2)OCO3)CC1 (stereo not drawn),i,i,nt,nt,i,nt
CC(C(=O)NC1C(=O)N2C(C(=O)O)=C(CSc3nnnn3C)CSC12)n1cc(Cl)cn1 (stereo not drawn),i,nt,i,i,?,40µM
Cc1cc(=O)c(C(=O)N[C@@H](C(=O)N[C@@H]2C(=O)N3C(C(=O)O)=C(CSc4nnnn4C)CS[C@H]23)c2ccc(O)cc2)c[nH]1,nt,nt,nt,nt,i[12.7 µM],i
CCOC(=O)c1cccc(NC(=O)c2cn(-c3cccc(OC)c3)c(=O)c3ccccc23)c1,i,?,nt,nt,10µM,nt

# Assay outcomes from PubChem.
